Laboratory results: BindingDB's records for PubMed 6655559 (University of California, 1983)

The chains behind the UniProt entries cited, without tags or fusion partners.
UniProt G1T1Q0, whole entry: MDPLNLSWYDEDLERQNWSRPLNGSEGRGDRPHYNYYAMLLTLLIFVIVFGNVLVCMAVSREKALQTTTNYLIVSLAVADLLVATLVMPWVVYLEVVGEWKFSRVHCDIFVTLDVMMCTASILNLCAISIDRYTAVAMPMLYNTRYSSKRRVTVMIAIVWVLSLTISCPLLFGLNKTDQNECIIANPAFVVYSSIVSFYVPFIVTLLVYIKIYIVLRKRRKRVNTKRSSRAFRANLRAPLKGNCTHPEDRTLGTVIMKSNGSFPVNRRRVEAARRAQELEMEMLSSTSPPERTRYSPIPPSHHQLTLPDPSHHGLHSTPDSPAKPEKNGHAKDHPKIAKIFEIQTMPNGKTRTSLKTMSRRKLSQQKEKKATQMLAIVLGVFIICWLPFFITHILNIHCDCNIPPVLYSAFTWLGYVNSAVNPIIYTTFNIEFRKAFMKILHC

Molecular target: D(2) dopamine receptor (Oryctolagus cuniculus, UniProt G1T1Q0)

| SMILES | Ki |
| --- | --- |
| CCN1CCCC1CNC(=O)c1cc(S(N)(=O)=O)ccc1OC (configuration not stated) [N-[(1-ethylpyrrolidin-2-yl)methyl]-2-methoxy-5-sulfamoylbenzamide] | 300 nM |
| CCN1CCC[C@H]1CNC(=O)c1cc(S(N)(=O)=O)ccc1OC [Sulpiride-S] | 20 nM and 31 nM |

Several values for one entry are separate records, joined by “and”; a condition that tells them apart may be missing. Equal entries are not always repeated.
